Data from ChEMBL document CHEMBL2057199, “Development of novel M1 antagonist scaffolds through the continued optimization of the MLPCN probe ML012” (Bioorg Med Chem Lett, 2012).

By UniProt entry, the sequences of proteins in these tests, tags left out. Where a name states a change or a piece, a line headed by the entry shows the natural chain unless it says otherwise.
UniProt P20309, whole entry, looked up: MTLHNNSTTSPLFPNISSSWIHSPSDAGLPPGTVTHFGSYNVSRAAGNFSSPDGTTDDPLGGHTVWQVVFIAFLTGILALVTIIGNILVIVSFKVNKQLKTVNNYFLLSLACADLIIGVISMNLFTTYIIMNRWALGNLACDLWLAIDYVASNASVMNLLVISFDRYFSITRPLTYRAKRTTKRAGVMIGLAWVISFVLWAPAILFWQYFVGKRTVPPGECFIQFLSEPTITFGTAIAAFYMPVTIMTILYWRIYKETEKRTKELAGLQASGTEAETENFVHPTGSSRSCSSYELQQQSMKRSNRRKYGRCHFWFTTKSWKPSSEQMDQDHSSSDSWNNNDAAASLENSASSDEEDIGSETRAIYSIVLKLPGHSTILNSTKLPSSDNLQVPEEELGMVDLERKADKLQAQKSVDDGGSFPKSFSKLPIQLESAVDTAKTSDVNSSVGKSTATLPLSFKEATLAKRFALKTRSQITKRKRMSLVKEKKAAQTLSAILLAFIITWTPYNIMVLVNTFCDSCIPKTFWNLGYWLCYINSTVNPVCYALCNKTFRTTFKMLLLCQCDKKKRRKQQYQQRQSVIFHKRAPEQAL
UniProt P11229: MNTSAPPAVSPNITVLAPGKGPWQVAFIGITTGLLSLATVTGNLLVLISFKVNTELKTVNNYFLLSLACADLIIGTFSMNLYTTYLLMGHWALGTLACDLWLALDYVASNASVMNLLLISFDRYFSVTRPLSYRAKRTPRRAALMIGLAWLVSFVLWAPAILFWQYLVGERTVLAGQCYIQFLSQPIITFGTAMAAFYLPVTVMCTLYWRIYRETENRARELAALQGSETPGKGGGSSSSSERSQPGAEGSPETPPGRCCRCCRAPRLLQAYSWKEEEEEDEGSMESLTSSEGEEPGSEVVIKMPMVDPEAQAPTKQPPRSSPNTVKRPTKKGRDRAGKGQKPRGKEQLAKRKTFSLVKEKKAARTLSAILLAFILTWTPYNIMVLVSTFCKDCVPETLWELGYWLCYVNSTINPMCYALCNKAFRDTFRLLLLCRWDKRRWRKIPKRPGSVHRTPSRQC
UniProt P08172, whole entry, looked up: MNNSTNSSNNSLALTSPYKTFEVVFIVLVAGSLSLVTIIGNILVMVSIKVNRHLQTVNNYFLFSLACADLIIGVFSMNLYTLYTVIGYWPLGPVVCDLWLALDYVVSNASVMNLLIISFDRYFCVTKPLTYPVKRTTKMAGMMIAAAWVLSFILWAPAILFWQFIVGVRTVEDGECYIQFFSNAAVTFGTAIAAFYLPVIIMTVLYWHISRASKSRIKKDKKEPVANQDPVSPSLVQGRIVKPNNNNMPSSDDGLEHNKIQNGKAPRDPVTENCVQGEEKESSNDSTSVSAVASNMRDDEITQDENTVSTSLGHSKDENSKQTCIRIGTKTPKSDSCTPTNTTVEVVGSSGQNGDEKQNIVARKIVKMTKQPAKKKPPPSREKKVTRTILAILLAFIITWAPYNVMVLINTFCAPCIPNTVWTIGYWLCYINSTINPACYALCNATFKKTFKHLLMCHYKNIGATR

Assays:
[1] = target: Muscarinic acetylcholine receptor M1 and M3 (Homo sapiens) (UniProt P20309+P11229); assay: Selectivity for human muscarinic M1 receptor over human muscarinic M3 receptor
[2] = organism: Homo sapiens; assay: Selectivity for human muscarinic M1 receptor over human muscarinic M5 receptor
[3] = target: Muscarinic acetylcholine receptors; M1 & M2 (Homo sapiens) (UniProt P11229+P08172); assay: Selectivity for human muscarinic M1 receptor over human muscarinic M2 receptor
[4] = organism: Homo sapiens; assay: Selectivity for human muscarinic M1 receptor over human muscarinic M4 receptor

Measured: Selectivity ratio

O=C(CCNS(=O)(=O)c1cccc2nsnc12)N1CCN(c2ccncc2)CC1
45: all assays above
